The chains behind the UniProt entries cited, without tags or fusion partners.
UniProt Q4J6C6, whole entry, looked up: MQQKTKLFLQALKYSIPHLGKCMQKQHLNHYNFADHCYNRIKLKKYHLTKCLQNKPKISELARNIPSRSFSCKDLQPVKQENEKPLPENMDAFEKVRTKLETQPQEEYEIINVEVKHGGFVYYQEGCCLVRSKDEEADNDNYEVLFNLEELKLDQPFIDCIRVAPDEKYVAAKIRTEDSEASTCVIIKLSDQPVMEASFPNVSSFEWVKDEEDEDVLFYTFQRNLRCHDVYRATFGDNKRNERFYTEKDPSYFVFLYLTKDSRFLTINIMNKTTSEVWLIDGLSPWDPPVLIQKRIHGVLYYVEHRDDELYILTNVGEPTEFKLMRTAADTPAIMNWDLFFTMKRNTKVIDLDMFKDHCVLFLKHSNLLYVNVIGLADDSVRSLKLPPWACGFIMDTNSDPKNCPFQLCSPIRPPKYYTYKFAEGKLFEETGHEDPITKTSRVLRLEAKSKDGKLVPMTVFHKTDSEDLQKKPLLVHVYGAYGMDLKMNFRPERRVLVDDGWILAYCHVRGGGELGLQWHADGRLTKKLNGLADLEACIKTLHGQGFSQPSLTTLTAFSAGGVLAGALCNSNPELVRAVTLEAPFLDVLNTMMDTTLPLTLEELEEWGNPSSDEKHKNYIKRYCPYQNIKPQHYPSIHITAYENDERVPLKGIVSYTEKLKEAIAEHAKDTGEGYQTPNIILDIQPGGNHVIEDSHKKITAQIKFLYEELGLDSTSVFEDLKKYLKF

This is a selection; strong and weak results do not stand in their true shares. Calls of active or inactive are those of the source. No stated cut-off is given here; in the data, active means inhibition above about 43%; inactive means the rest.
The molecules below were run against Prolyl endopeptidase-like (Homo sapiens) (UniProt Q4J6C6) (assay: PREPL enzyme inhibitors, primary screen, biochemical, fluorescence polarization (AID 2751;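 further: 0% = enzyme with DMSO and 100% = wells lacking enzyme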)). Settings: recombinant PREPL, fluorescence polarization activity-based probe; at 5.96 µM; active compounds read high.
`O=P(Nc1ccccn1)(c1ccc(Br)cc1)c1ccc(Br)cc1` was tested, and the inhibition was inactive: -6.09%.
In the case of `CN(C)C1(CNC(=O)c2ccc(Cl)c(S(N)(=O)=O)c2)CCCCC1`, the inhibition is reported as inactive: -2.27%.
In the case of `C[C@H]1OP(=O)(Oc2ccccc2)[C@H](O)[C@H](O)[C@H]1N=[N+]=[N-]` (stereo partly specified), the inhibition is reported as inactive: -9.56%.
In the case of `O=P(Nc1nc2ccccc2s1)(c1ccccc1)c1ccccc1`, the inhibition is reported as inactive: 10.6%.
For `O=[N+]([O-])c1ccc(O)c(/C=N/Nc2ccc([N+](=O)[O-])cc2[N+](=O)[O-])c1`, the inhibition was inactive: 5.7%.
`CC(=O)NC(SC(=S)N(C)C)C(Cl)(Cl)Cl` (stereo unspecified) was tested, and the inhibition was inactive: -5.53%.
In the case of `O=[N+]([O-])c1ncn(CCn2cnc([N+](=O)[O-])n2)n1`, the inhibition is reported as inactive: 0.18%.
`O=[As](O)(c1ccccc1)c1ccc(O)cc1` was tested, and the inhibition was inactive: 8.47%.
For `C(Cc1nn[nH]n1)Cc1nn[nH]n1`, the inhibition was inactive: 2.74%.
With `Nc1ccc([As](=O)(O)c2ccc([N+](=O)[O-])cc2)cc1` the inhibition was inactive: -5.98%.
`O=C(OC1CN2CCC1CC2)c1cccc(Cl)c1` (stereo unspecified) was tested, and the inhibition was inactive: 13.2%.
`CC(C)C(=O)NC(Sc1ccccc1)C(Cl)(Cl)Cl` (stereo unspecified) was tested, and the inhibition was inactive: 5.67%.
In the case of `O=P(Nc1nccs1)(c1ccccc1)c1ccccc1`, the inhibition is reported as inactive: -0.13%.
For `c1nnnn1CCn1cnnn1`, the inhibition was inactive: -6.61%.
In the case of `CCOc1ccc(C2=NCC(CBr)S2)cc1` (stereo unspecified), the inhibition is reported as inactive: -12.3%.
In the case of `O=P1(Nc2nc3ccc(Cl)cc3s2)COc2ccccc2O1` (stereo unspecified), the inhibition is reported as inactive: -8.5%.
For `CC(C)(C)C(=O)NC(Sc1ccccc1)C(Cl)(Cl)Cl` (stereo unspecified), the inhibition was inactive: 9.41%.
`CC(=O)c1ccc(N2CC2c2ccncc2)cc1` (stereo unspecified) was tested, and the inhibition was inactive: -8.13%.
In the case of `C[C@H]1OP(=O)(Oc2ccccc2)C[C@@H]2O[C@@H]21` (stereo partly specified), the inhibition is reported as inactive: 9.74%.
With `C[C@@H]1C=CCP(=O)(Oc2ccccc2)O1` (stereo partly specified) the inhibition was inactive: -0.39%.
In the case of `Cc1ccccc1CN(C)C(=O)COC(=O)C(O)(c1ccccc1)c1ccccc1`, the inhibition is reported as inactive: 12.6%.
With `CC(=O)Nc1ccc(Oc2c([N+](=O)[O-])cc([N+](=O)[O-])cc2[N+](=O)[O-])cc1` the inhibition was inactive: 0.93%.
`CC(=O)Nc1ccc([As](=O)(O)O)c(O)c1` was tested, and the inhibition was inactive: 7.29%.
`CCNC(=S)/N=C(\N)N[N+](=O)[O-]` was tested, and the inhibition was inactive: 3.43%.
For `O=C(NC1CCS(=O)(=O)C1)NP(=S)(Oc1ccccc1)Oc1ccccc1` (stereo unspecified), the inhibition was inactive: -2.5%.
`Cc1ccc(NP(=O)(Oc2cccc(C)c2)Oc2cccc(C)c2)nc1` was tested, and the inhibition was inactive: 8.16%.
`CCOC(=O)NC(Sc1ccccc1)C(Cl)(Cl)Cl` (stereo unspecified) was tested, and the inhibition was inactive: 0.47%.
`c1ccc(-c2nn[nH]n2)c(-c2nn[nH]n2)c1` was tested, and the inhibition was inactive: -12.8%.
`CC(=O)NC(SC(=S)N(CC(C)C)CC(C)C)C(Cl)(Cl)Cl` (stereo unspecified) was tested, and the inhibition was inactive: 12.2%.
With `Cc1ccc(OP(=O)(Nc2ccccn2)Oc2ccc(C)cc2)cc1` the inhibition was inactive: 6.21%.
With `COC(=O)c1cc2c(s1)N=C(c1ccccc1)N(C)P2(=O)N1CCOCC1` (stereo unspecified) the inhibition was inactive: 18.6%.
With `CCC(=O)N1C2C3N(C(=O)CC)C1C1N(C(=O)CC)C(C(N1C(=O)CC)N3C(=O)CC)N2C(=O)CC` the inhibition was inactive: 5.17%.
With `O=C(OC1CN2CCC1CC2)c1ccccc1` (stereo unspecified) the inhibition was inactive: -1.42%.
With `CN(C)C(=O)Oc1noc2ccccc12` the inhibition was inactive: -0.38%.
With `CC(NC(=O)COC(=O)C(O)(c1ccccc1)c1ccccc1)c1ccccc1` (stereo unspecified) the inhibition was inactive: 29%.
`Cc1ccccc1OP(=O)(Nc1ccccn1)Oc1ccccc1C` was tested, and the inhibition was inactive: -4.01%.
`CC(=O)Nc1ccc([As](=O)(O)O)cc1` was tested, and the inhibition was inactive: 8.78%.
`O=C(O)c1ccccc1[As](=O)(O)O` was tested, and the inhibition was inactive: 0.88%.
In the case of `O=P(Nc1nc2ccc(Cl)cc2s1)(c1ccccc1)c1ccccc1`, the inhibition is reported as inactive: 10.2%.
`Cc1ccc(NP(=O)(Oc2ccccc2F)Oc2ccccc2F)nc1` was tested, and the inhibition was inactive: -2.45%.
For `CN(C(=O)Cc1ccc(Cl)c(Cl)c1)[C@H]1CCCC[C@@H]1N1CCCC1`, the inhibition was inactive: 35.5%.
In the case of `Cc1cc(SC(NC(=O)c2ccc(F)cc2)C(Cl)(Cl)Cl)ncn1` (stereo unspecified), the inhibition is reported as inactive: 6.44%.
In the case of `CCOP(=O)(Nc1ccccc1)OCC`, the inhibition is reported as inactive: 6.01%.
For `O=[N+]([O-])c1cc([N+](=O)[O-])c(CCN2CCOCC2)c([N+](=O)[O-])c1`, the inhibition was active: 61.4%.
`CCN(N=Nc1nonc1N)c1nonc1N` was tested, and the inhibition was inactive: -4.5%.
With `NC(=O)c1cc([N+](=O)[O-])cc([N+](=O)[O-])c1N` the inhibition was inactive: 9.77%.
In the case of `Cc1ccc(N/C(=N/P(=O)(N2CCOCC2)N2CCOCC2)N2CCOCC2)cc1`, the inhibition is reported as inactive: -2.41%.
In the case of `CN(C(=O)Cc1ccc(Cl)c(Cl)c1)[C@H]1CCCC[C@H]1N1CCCC1`, the inhibition is reported as active: 61.8%.
In the case of `Cc1ccc(OP(=O)(Nc2nccs2)Oc2ccc(C)cc2)cc1`, the inhibition is reported as inactive: -4.72%.
`COc1ccccc1OP(=O)(Nc1ccc(C)cn1)Oc1ccccc1OC` was tested, and the inhibition was inactive: -2.06%.
With `CN1CCCC(OC(=O)C(c2ccccc2)c2ccccc2)C1` (stereo unspecified) the inhibition was inactive: -5.71%.
`Clc1ccc(Cl)c(NC2=NCC(CBr)S2)c1` (stereo unspecified) was tested, and the inhibition was inactive: -0.13%.
For `Nc1cc(N)c2nonc2c1[N+](=O)[O-]`, the inhibition was inactive: -1.42%.
In the case of `CC(C)CC(=O)NC(Sc1ccc(Cl)cc1)C(Cl)(Cl)Cl` (stereo unspecified), the inhibition is reported as inactive: 8.12%.
With `O=C(NC(Sc1ccncn1)C(Cl)(Cl)Cl)c1ccccc1` (stereo unspecified) the inhibition was inactive: 9.42%.
`Cc1c2non([O-])c-2c(C)[n+](=O)[n+]1[O-]` was tested, and the inhibition was inactive: 4.61%.
With `Oc1ccccc1CNc1ccccn1` the inhibition was inactive: -11.4%.
`COc1ccc(C2=NCC(CBr)S2)cc1` (stereo unspecified) was tested, and the inhibition was inactive: -6.76%.
For `O=[N+]([O-])c1cccc2n[nH]nc12`, the inhibition was inactive: -7%.
With `CC(=O)N1C2C3N(C(C)=O)C1C1N(C(C)=O)C(C(N1C(C)=O)N3C(C)=O)N2C(C)=O` the inhibition was inactive: -0.78%.
With `CCc1nc2c(n1)c1c(non1O)c1c2no[n+]1[O-]` the inhibition was inactive: 11.4%.
With `O=[N+]([O-])c1cc([N+](=O)[O-])c(CCNc2ccccc2)c([N+](=O)[O-])c1` the inhibition was inactive: 26.2%.
For `Cc1ccc(NP(=O)(Oc2ccccc2)Oc2ccccc2)nc1`, the inhibition was inactive: 0.35%.
`C[N+]1=C2C=CC=CC=C2SC12C([N+](=O)[O-])=CC([N+](=O)[O-])=C[C-]2[N+](=O)[O-]` (stereo unspecified) was tested, and the inhibition was inactive: 20.4%.
With `Nc1ccc([As](=O)(O)c2ccc(N)cc2)cc1` the inhibition was inactive: 9.12%.
In the case of `CCN(/C(=N/P(=O)(N1CCOCC1)N1CCOCC1)N1CCOCC1)c1ccc(OC)cc1`, the inhibition is reported as inactive: 2.74%.
With `CN(C)C(=O)OCCc1n(C)cc[n+]1C` the inhibition was inactive: -3.58%.
`CC(C)=N/N=C(\N)N[N+](=O)[O-]` was tested, and the inhibition was inactive: -12.1%.
With `CC1CCN(C(=O)Oc2c(Cl)cc(Cl)c3cccnc23)CC1` the inhibition was inactive: 2.44%.
With `O=C(Nc1cc([As](=O)(O)O)ccc1O)c1ccccc1` the inhibition was inactive: 12%.
In the case of `CC(C)(C)C(=O)NC(Sc1ccncn1)C(Cl)(Cl)Cl` (stereo unspecified), the inhibition is reported as inactive: 14.4%.
With `O=[N+]([O-])c1ncn(CCn2ncnc2[N+](=O)[O-])n1` the inhibition was inactive: -3.62%.
In the case of `O=[N+]([O-])c1cccc(NC2=NCC(CBr)S2)c1` (stereo unspecified), the inhibition is reported as inactive: 8.87%.
For `CCOC(=O)Nc1ccc([As](=O)(O)O)c(O)c1`, the inhibition was inactive: 4.96%.
In the case of `Cc1cc(SC(NC(=O)c2ccccc2)C(Cl)(Cl)Cl)nc(C(C)C)n1` (stereo unspecified), the inhibition is reported as inactive: 2.73%.
In the case of `CCOC(=O)Nc1cccc([As](=O)(O)O)c1`, the inhibition is reported as inactive: 5.63%.
In the case of `O=P(Nc1ccccn1)(c1cccc2ccccc12)c1cccc2ccccc12`, the inhibition is reported as inactive: -17.9%.
In the case of `Cc1cc(SC(NC=O)C(Cl)(Cl)Cl)ncn1` (stereo unspecified), the inhibition is reported as inactive: 8.9%.
In the case of `COP1(=S)c2c(C)nn(CCC#N)c2N=C(c2ccc(F)cc2)N1C` (stereo unspecified), the inhibition is reported as inactive: 37.7%.
`O=C(Nc1ccncc1[N+](=O)[O-])c1ccc([N+](=O)[O-])cc1[N+](=O)[O-]` was tested, and the inhibition was inactive: 13.8%.
`O=C(COc1ccccc1)OC1CN2CCC1CC2` (stereo unspecified) was tested, and the inhibition was inactive: 18%.
`CCOC(=O)c1ccc(NC(=O)C(C)(CCl)SC)cc1` (stereo unspecified) was tested, and the inhibition was inactive: 6.31%.
For `O=C(OC1CN2CCC1CC2)c1cccc([N+](=O)[O-])c1` (stereo unspecified), the inhibition was inactive: 2.21%.
`CCC(C)N(CC(C)C)C(=S)SC(NC(C)=O)C(Cl)(Cl)Cl` (stereo unspecified) was tested, and the inhibition was inactive: 7.07%.
For `Cc1cc(=O)[nH]c(N[N+](=O)[O-])n1`, the inhibition was inactive: 8.53%.
In the case of `O=C(OC1CN2CCC1CC2)C12CC3CC(CC(C3)C1)C2` (stereo unspecified), the inhibition is reported as inactive: 16.2%.
`Cc1c2c(nc3ccccc13)SC(C(Cl)Cl)C2` (stereo unspecified) was tested, and the inhibition was inactive: 2.32%.
For `COc1ccc2nc(NP(=O)(c3ccccc3)c3ccccc3)sc2c1`, the inhibition was inactive: 5.28%.
With `COc1ccc(N/C(=N/P(=O)(N2CCOCC2)N2CCOCC2)N2CCOCC2)cc1` the inhibition was inactive: -3.34%.
With `COc1cc(C(=O)NCC2(N3CCOCC3)CCCCC2)ccc1OCC(C)C` the inhibition was inactive: 5.32%.
`C[As](=O)(O)c1cccc(C(=O)O)c1` was tested, and the inhibition was inactive: 14.8%.
With `O=[As](O)(c1ccc(O)cc1)c1ccccc1O` the inhibition was inactive: 0.16%.
In the case of `Cc1ccc2nc3c(c(C)c2c1)CC(C(Cl)Cl)S3` (stereo unspecified), the inhibition is reported as inactive: -2.72%.
For `Cc1ccc(OP(=O)(Nc2ccc([N+](=O)[O-])cn2)Oc2ccc(C)cc2)cc1`, the inhibition was inactive: -5.58%.
With `CC(C)c1ccc(OP(=O)(Nc2ccccn2)Oc2ccccc2F)cc1` (stereo unspecified) the inhibition was inactive: -4.8%.
`ClCCSc1nnc(-c2cccnc2)o1` was tested, and the inhibition was inactive: -4.03%.
With `O=[N+]([O-])c1cc([N+](=O)[O-])c(-c2ccn[nH]2)s1` the inhibition was inactive: 6.7%.
With `CC(C)NC(=O)NP(=O)(Oc1ccccc1)Oc1ccccc1` the inhibition was inactive: 14.1%.
For `CCN(CC)C(=S)SC(NC=O)C(Cl)(Cl)Cl` (stereo unspecified), the inhibition was inactive: 19.3%.
`CS(=O)(=O)c1cc([N+](=O)[O-])c2no[n+]([O-])c2c1` was tested, and the inhibition was inactive: 10.9%.
With `O=P(Nc1nccs1)(Oc1ccccc1)Oc1ccccc1` the inhibition was inactive: 9.8%.

Reference: PubChem BioAssay AID2751 (The Scripps Research Institute Molecular Screening Center, 2010)
